# Assay: Cut-off diameters of air jet milled powders used for blends
# Conditions: micronized with Model 00 Jet-O-Mizer air jet mill
smiles,measurement,value
CC(C)/N=c1\cc2n(-c3ccc(Cl)cc3)c3ccccc3nc-2cc1Nc1ccc(Cl)cc1 [Clofazimine],D50 cut-off diameter,2.2 μm
same,D90 cut-off diameter,5.1 μm

# From US12076328B2 (priority 2020, dated 2024)
